Here are results for one molecule from article PMC12376758, “Restoration of CB1 receptor function in hippocampal GABAergic neurons rescues memory deficits in Huntington’s disease models” (Translational Neurodegeneration, 2025).

The chains behind the UniProt entries cited, without tags or fusion partners.
UniProt P47746, whole entry: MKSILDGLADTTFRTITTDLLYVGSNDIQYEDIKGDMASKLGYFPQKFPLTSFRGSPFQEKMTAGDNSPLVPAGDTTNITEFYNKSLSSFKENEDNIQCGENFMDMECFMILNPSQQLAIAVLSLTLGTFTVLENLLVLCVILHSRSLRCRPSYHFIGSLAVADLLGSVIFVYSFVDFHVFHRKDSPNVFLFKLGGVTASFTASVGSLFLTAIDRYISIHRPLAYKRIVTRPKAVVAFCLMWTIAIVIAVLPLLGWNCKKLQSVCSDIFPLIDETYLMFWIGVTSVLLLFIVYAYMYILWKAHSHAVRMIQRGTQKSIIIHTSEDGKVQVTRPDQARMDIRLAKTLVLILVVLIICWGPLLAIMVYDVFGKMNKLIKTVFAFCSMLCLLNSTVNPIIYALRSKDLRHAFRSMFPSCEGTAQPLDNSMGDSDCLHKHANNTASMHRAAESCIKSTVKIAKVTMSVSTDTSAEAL

Read-outs that look alike come from different tables or passages of the source.

This experiment has as its target T1, CB1R (Mus musculus, UniProt P47746).
T1 construct: Hippocampal membrane homogenates from WT vehicle (n = 14), WT WIN (n = 10), R6/1 vehicle (n = 10) and R6/1 WIN (n = 9) mice; from tissue; host or cells: mouse hippocampal membrane homogenates / synaptosomes (WT and R6/1, vehicle or WIN treated)
It counts as binding. Particulars: for Bmax: [3H]SR141716A 2 nmol/L.

For the molecule `Cc1c(C(=O)c2cccc3ccccc23)c2cccc3c2n1[C@H](CN1CCOCC1)CO3` [WIN, WIN 55212–2], the Bmax is 830.6 ± 46.32^$$ fmol/mg prot (hippocampal membrane homogenates of R6/1 mice treated with WIN 1 mg/kg) and 828.0 ± 39.64 fmol/mg prot (hippocampal membrane homogenates of WT mice treated with WIN 1 mg/kg). The “Total binding of [3H]SR141716A (peak of the inhibition curve)” value (hippocampal membranes of R6/1 mice, WIN vs vehicle) is “significantly increased”. The “binding profile of inhibition curve (one or two binding sites)” value (hippocampal membranes of WIN-treated R6/1 mice, [3H]SR141716A displaced by CP55940) is on record as “both binding sites”.
